From publication PMC7934871 (JCI Insight, 2021)

The chains behind the UniProt entries cited, without tags or fusion partners. Where a name states a change or a piece, a line headed by the entry shows the natural chain unless it says otherwise.
UniProt P61244: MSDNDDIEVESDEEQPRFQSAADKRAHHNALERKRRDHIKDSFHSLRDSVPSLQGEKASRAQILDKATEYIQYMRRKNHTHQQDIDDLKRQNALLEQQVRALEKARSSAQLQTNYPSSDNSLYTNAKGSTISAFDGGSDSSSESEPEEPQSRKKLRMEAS

Tested on: KPC mouse PDAC cells
Assay: KPC mouse PDAC tumor model in C57BL/6 mice
Format: in vivo
Conditions: KPC s.c. in C57BL/6 mice, i.v. 1 mg/kg every other day for 18 days (combination 0.5 mg/kg each), n = 5
Protocol: (A) Pancreatic KPC tumor cells were subcutaneously xenografted in C57BL/6 mice. The tumors were systemically treated with PS-peptides as indicated (n = 5 per group) every other day at 1 mg/kg. Combination of PS-MYC and PS-Gp130 peptides was given at 0.5 mg/kg, respectively. SD is shown. Two-way ANOVA. ****P < 0.0001. (B) Quantitative PCR showing the levels of Mmp9, Cd274, and Birc5 in pooled tumor tissues treated with the indicated peptides in A. n = 3 independent quantitative PCR experiments. SD is shown. […] (C) H&E and IF analysis of tissue sections from the tumors treated as indicated in A. Images are representative of 5 tumors per experimental group. H&E, scale bars: 100 μm. IF, scale bars: 50 μm. Right panels show the quantified Ki-67 level and the mean of vessel diameter (CD31; data include 2 fields of view per lung section). SEM is shown. […] (E) The population of IFN-γ^+ in CD8^+ T or Foxp3^+ in CD4^+ T cells in the pooled tumor tissues treated as indicated was quantified by flow cytometry. […]
Mouse care and experimental procedures were performed under pathogen-free conditions in accordance with established institutional guidance and approved IACUC protocols from Research Animal Care Committee of the City of Hope. […] Tumor growth was measured by a digital caliper every other day. […] Lungs were then analyzed for immune responses by immunostaining followed by confocal imaging. […]

PS-MYC: PS-conjugated peptide corresponding to leucine zipper segment of MAX (amino acids 77–85) (KNHTHQQDI; phosphorothioate oligonucleotide conjugate; UniProt P61244 77-85, looked up, fragment)
PDAC tumor growth: significantly inhibited
